What follows are molecules tested against Phosphatidylinositol 4,5-bisphosphate 3-kinase catalytic subunit beta isoform (Homo sapiens, UniProt P42338).
For `Cn1nc(-c2ccc(OCc3ccccc3)cc2)c2c(N)ncnc21`, the IC50 was > 50 µM.
In the case of `Cn1nc(-c2cccc(-c3ccccc3)c2)c2c(N)ncnc21`, the IC50 is reported as > 50 µM.

The molecules below were run against Serine/threonine-protein kinase mTOR (Homo sapiens, UniProt P42345).
With `CCOc1ccc(-c2nn(C3CCCC3)c3ncnc(N)c23)cc1OC` the IC50 was 6.5 µM.
`CC(C)n1nc(-c2ccc(O)cc2)c2c(N)ncnc21` was tested, and the IC50 was 6 µM.
With `Cc1ccc(-c2nn(C)c3ncnc(N)c23)cc1O` the IC50 was 0.861 µM.
For `Cn1nc(-c2ccc(Br)c(O)c2)c2c(N)ncnc21`, the IC50 was 0.548 µM.
`CC(C)n1nc(-c2cccnc2)c2c(N)ncnc21` showed an IC50 of 5.5 µM.
For `Nc1ccc(-c2nn(C3CCCC3)c3ncnc(N)c23)cc1O`, the IC50 was 0.911 µM.
With `CC(C)n1nc(-c2ccc3occc3c2)c2c(N)ncnc21` the IC50 was 3.4 µM.
`Nc1ncnc2c1c(-c1ccc3occc3c1)nn2C1CCCC1` gave an IC50 of 1.6 µM.
Molecule `Nc1ncnc2c1c(-c1ccc(Cl)c(O)c1)nn2C1CCC1` has an IC50 of 0.23 µM.
With `CC(C)n1nc(-c2cccc(CO)c2)c2c(N)ncnc21` the IC50 was 5.4 µM.
Work on `Nc1ncnc2c1c(-c1ccc(Cl)c(O)c1)nn2C1CCCC1` yielded an IC50 of 0.439 µM.
`CC(C)n1nc(-c2cccc(C#N)c2)c2c(N)ncnc21` was tested, and the IC50 was 40 µM.
`Cc1ccc2cc(-c3nn(C(C)C)c4ncnc(N)c34)ccc2n1` was tested, and the IC50 was 0.565 µM.
`Nc1ncnc2c1c(-c1ccc(Cl)c(O)c1)nn2CC1CCCN1` (stereo not given) gave an IC50 of 15 µM.
`Nc1ncnc2c1c(-c1ccc(Cl)c(O)c1)nn2CC1CCNC1` (stereo not given) gave an IC50 of 4.8 µM.
With `CC(C)n1nc(-c2ccc(C#N)nc2)c2c(N)ncnc21` the IC50 was 5.8 µM.
Molecule `CC(C)n1nc(-c2ccc3nccnc3c2)c2c(N)ncnc21` has an IC50 of 0.632 µM.
For `CC(C)n1nc(-c2cnc3nccnc3c2)c2c(N)ncnc21`, the IC50 was 6.8 µM.
`CC(C)n1nc(-c2ccc3nc[nH]c(=O)c3c2)c2c(N)ncnc21` was tested, and the IC50 was 0.02 µM.
`Nc1ncnc2c1c(-c1ccc(Cl)c(O)c1)nn2CC1CCCNC1` (stereo not given) was tested, and the IC50 was 3.2 µM.
Molecule `CC(C)n1nc(-c2cccc(NS(C)(=O)=O)c2)c2c(N)ncnc21` has an IC50 of 5 µM.
For `CC(C)n1nc(-c2ccc3nc(N)ccc3c2)c2c(N)ncnc21`, the IC50 was 0.033 µM.
`CC(C)n1nc(-c2cc(F)c(O)cc2F)c2c(N)ncnc21` gave an IC50 of 1.13 µM.
`CC(C)n1nc(-c2ccc3nccc(NC(=O)OC(C)(C)C)c3c2)c2c(N)ncnc21` gave an IC50 of 3.2 µM.
For `Cn1nc(-c2ccc3occc(=O)c3c2)c2c(N)ncnc21`, the IC50 was > 50 µM.
`CC(C)n1nc(-c2ccc3occc(=O)c3c2)c2c(N)ncnc21` showed an IC50 of 1.3 µM.
Work on `Nc1ncnc2c1c(-c1cc(O)cc(F)c1)nn2C1CCCC1` yielded an IC50 of 10 µM.
`COc1ccc(-c2nn(C3CCC(C)C3)c3ncnc(N)c23)cc1O` (stereo not given) was tested, and the IC50 was 0.17 µM.
`COc1ccc(-c2nn(C3CNC3)c3ncnc(N)c23)cc1O` gave an IC50 of 5.1 µM.
Work on `CC(C)n1nc(-c2ccc3cnccc3c2)c2c(N)ncnc21` yielded an IC50 of 2.2 µM.
In the case of `CC(C)n1nc(-c2ccc3ccncc3c2)c2c(N)ncnc21`, the IC50 is reported as 1.5 µM.
`CC(C)n1nc(-c2cc(O)cc(Br)c2)c2c(N)ncnc21` showed an IC50 of 30 µM.
Work on `CCOc1ccc(-c2nn(C3CCCC3)c3ncnc(N)c23)cc1O` yielded an IC50 of 0.11 µM.
For `COc1ccc(-c2nn(C(C)C)c3ncnc(N)c23)cc1OC`, the IC50 was 3.1 µM.
With `CC(C)n1nc(-c2cnc3[nH]ccc3c2)c2c(N)ncnc21` the IC50 was 0.06 µM.
`Nc1ncnc2c1c(-c1ccc3[nH]ccc3c1)nn2C1CCCC1` was tested, and the IC50 was 0.407 µM.
For `C[C@H](CN)n1nc(-c2ccc(F)c(O)c2)c2c(N)ncnc21`, the IC50 was 11 µM.
`COc1ccc(-c2nn(C(C)(C)C)c3ncnc(N)c23)cc1OC` was tested, and the IC50 was > 50 µM.
Molecule `CC(C)n1nc(-c2ccc3c(ccn3C)c2)c2c(N)ncnc21` has an IC50 of 0.457 µM.
`C[C@@H](CN)n1nc(-c2ccc(F)c(O)c2)c2c(N)ncnc21` was tested, and the IC50 was 2.9 µM.
Molecule `N#CCCCCn1nc(-c2ccc(F)c(O)c2)c2c(N)ncnc21` has an IC50 of 0.833 µM.
Molecule `Nc1ncnc2c1c(-c1ccc3[nH]ncc3c1)nn2C1CCCC1` has an IC50 of 1.1 µM.
`CC(C)n1nc(-c2ccc3c(N)n[nH]c3c2)c2c(N)ncnc21` was tested, and the IC50 was 1.64 µM.
With `Nc1ncnc2c1c(-c1ccc(F)c(O)c1)nn2C1CCC1` the IC50 was 1.5 µM.
`Nc1ncnc2c1c(-c1ccc3cn[nH]c3c1)nn2C1CCCC1` showed an IC50 of 0.596 µM.
`CC(C)n1nc(-c2cc(F)c3cn[nH]c3c2)c2c(N)ncnc21` was tested, and the IC50 was 7 µM.
In the case of `CC(C)n1nc(-c2ccc3cc[nH]c3c2)c2c(N)ncnc21`, the IC50 is reported as 0.467 µM.
`CC(C)n1nc(-c2ccc3cc(O)ccc3c2)c2c(N)ncnc21` gave an IC50 of 0.109 µM.
For `CC(C)n1nc(-c2ccn3ccnc3c2)c2c(N)ncnc21`, the IC50 was 7.6 µM.
For `Nc1ncnc2c1c(-c1ccc(F)c(O)c1)nn2C1CCCCCC1`, the IC50 was 1.1 µM.
`CC(C)n1nc(-c2cnc3ccccc3c2)c2c(N)ncnc21` gave an IC50 of 1.9 µM.
`CC(C)(C)OC(=O)n1ccc2cc(-c3nn(C4CCCC4)c4ncnc(N)c34)ccc21` gave an IC50 of 0.576 µM.

What follows are molecules tested against Tyrosine-protein kinase HCK (Homo sapiens, UniProt P08631).
Molecule `CC(C)n1nc(-c2cc(F)c3cn[nH]c3c2)c2c(N)ncnc21` has an IC50 of 0.076 µM.
